The target of assay [1] is Mu-type opioid receptor (Mus musculus) (UniProt P42866).
Assay [2] deals with Delta-type opioid receptor (Mus musculus) (UniProt P32300).

Amino acid sequences for entries named in this document (tags omitted).
UniProt P42866, whole entry: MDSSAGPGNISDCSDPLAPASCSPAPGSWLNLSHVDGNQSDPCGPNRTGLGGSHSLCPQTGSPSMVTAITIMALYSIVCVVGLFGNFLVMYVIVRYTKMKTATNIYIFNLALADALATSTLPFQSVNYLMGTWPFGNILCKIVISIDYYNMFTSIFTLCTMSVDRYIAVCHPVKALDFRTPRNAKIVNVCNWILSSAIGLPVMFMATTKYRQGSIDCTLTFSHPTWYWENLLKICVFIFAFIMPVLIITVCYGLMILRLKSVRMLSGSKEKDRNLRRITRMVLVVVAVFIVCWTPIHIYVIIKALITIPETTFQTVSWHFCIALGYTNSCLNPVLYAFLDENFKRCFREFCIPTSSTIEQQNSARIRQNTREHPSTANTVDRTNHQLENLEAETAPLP
UniProt P32300, whole entry: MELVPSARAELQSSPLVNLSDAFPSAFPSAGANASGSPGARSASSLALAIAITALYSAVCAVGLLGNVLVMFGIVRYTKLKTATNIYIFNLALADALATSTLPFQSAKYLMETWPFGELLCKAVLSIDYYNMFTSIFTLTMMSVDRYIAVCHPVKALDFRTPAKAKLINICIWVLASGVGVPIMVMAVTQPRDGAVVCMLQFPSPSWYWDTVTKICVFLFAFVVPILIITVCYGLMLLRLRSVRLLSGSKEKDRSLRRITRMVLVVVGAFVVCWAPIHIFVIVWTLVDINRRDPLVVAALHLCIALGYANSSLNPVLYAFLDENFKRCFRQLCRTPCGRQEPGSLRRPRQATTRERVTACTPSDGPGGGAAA

In the case of `CCO[C@@]12Cc3c([nH]c4ccccc34)[C@]3(C)Oc4c(O)ccc5c4[C@@]31CCN(CC1CC1)C2C5`, the figures for the Ke in assay [1] and in assay [2] were 133 nM and 1.3 nM, respectively.

Source of the values: ChEMBL document CHEMBL1130557, “Synthesis and biological evaluation of 14-alkoxymorphinans. 14.1 14-ethoxy-5-methyl substituted indolomorphinans with opioid receptor selectivity” (Bioorg Med Chem Lett, 1997).
